Our source for the inhibition values is PubChem BioAssay AID588478 (ICCB-Longwood Screening Facility, Harvard Medical School, 2011).

Sequences of proteins named here, by UniProt entry; tags and fusion partners are left off.
UniProt Q9Y5K5, whole entry, looked up: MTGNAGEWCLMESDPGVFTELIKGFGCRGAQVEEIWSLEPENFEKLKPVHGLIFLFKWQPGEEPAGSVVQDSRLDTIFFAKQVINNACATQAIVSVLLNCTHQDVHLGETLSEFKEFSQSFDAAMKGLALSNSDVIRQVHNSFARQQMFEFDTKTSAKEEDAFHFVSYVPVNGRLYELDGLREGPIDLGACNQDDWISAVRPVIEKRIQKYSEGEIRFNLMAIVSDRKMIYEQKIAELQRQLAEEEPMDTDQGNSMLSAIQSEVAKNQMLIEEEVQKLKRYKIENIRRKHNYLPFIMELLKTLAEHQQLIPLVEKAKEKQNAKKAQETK

In general, inhibition refers to the drop in the measured response relative to a control, in per cent.

Only a part is listed here, and it is no random draw. Activity calls are given as the source filed them.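 How the source made its calls: active means mean inhibition over replicate wells above about 20% (limit read from the data); inactive means the rest.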

The assay has as its target Ubiquitin carboxyl-terminal hydrolase isozyme L5 (Homo sapiens) (UniProt Q9Y5K5). Put plainly: proteasome-bound UCH37 DUB activity blockers – biochemical, Ub-AMC cleavage, fluorescence, primary screen (AID 588478).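 Further: 0% = compound-free wells with enzyme and 100% = wells lacking proteasome.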 As to conditions: purified proteasome/UCH37, Ub-AMC cleavage fluorescence; stronger effect = higher value; concentration not given here. A digest of the protocol: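 Schedule: 30 min plus 25 min, room temperature / Material: human UCH37 within purified proteasomes / Technique: AMC fluorescence intensity at 355/460 nm / Buffer or medium: pH 7.4 Tris-HCl (50 mM) with ovalbumin, ATP-MgCl2, DTT / Controls: wells without proteasome as full block, compound-free enzyme plus substrate as uninhibited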
In the case of `CC(=O)Nc1ccc(Oc2c([N+](=O)[O-])cc([N+](=O)[O-])cc2[N+](=O)[O-])cc1`, the inhibition is active: 20.7%.

In the case of `O=[N+]([O-])c1ccc(-c2cc([N+](=O)[O-])c(O)c([N+](=O)[O-])c2)cc1`, the inhibition was active: 20.5%.
